From PubChem BioAssay AID504332 (National Center for Advancing Translational Sciences (NCATS), 2011) come the findings set out here.

Protein sequences, listed by entry. Tags and fused reporters are not part of them. Lines headed by an entry give the natural chain unless they say otherwise; changes in a name come on top.
UniProt Q96KQ7: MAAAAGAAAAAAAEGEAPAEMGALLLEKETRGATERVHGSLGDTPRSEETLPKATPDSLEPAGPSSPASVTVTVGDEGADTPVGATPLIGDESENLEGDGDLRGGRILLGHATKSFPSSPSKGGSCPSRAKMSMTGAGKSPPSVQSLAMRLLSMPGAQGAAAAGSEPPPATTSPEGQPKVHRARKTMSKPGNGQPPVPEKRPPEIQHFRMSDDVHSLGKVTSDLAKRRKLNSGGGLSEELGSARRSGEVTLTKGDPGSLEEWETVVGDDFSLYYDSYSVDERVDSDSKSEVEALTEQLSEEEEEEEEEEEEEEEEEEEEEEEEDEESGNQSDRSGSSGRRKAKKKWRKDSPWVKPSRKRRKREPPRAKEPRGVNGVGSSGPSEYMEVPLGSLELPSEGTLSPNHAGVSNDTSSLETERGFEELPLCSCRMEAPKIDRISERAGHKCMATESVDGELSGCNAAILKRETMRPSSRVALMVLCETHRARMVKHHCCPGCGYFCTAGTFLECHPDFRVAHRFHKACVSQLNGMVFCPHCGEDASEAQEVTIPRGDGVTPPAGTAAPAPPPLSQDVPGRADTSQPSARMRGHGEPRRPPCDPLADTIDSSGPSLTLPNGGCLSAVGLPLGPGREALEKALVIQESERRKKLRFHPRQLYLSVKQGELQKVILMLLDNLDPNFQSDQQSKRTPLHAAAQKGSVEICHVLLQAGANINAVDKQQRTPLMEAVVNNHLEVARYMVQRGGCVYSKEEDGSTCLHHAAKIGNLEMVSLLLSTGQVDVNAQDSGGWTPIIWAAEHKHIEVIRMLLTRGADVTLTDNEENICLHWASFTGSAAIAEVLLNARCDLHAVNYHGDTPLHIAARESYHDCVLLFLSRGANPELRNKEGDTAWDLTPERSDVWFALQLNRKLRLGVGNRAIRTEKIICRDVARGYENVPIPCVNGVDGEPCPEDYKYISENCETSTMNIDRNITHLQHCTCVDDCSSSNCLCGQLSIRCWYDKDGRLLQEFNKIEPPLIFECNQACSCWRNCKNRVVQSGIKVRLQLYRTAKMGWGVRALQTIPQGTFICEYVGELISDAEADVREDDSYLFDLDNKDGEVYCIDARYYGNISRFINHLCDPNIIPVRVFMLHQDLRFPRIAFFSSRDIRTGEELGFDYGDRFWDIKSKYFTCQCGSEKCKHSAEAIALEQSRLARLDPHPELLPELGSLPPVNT

Only a part is listed here, and it is no random draw. Records with an inconclusive call do not appear. Active and inactive are the calls of the source. Calls come from the whole dose curve; as a rule, active = well fitted inhibition curve with a large enough effect; inconclusive = small, poorly fitted or top-dose-only effect; inactive = no such curve, though single readings can be large or run the other way.
% is set by controls: 0 for no effect and ±100 for the full control effect; potency is the fitted concentration of half-maximal effect.

The target in the assay is Histone-lysine N-methyltransferase EHMT2 (Homo sapiens) (UniProt Q96KQ7). As to the kind of experiment: qHTS Assay for Inhibitors of Histone Lysine Methyltransferase G9a. Note: nearly all actives have a fitted effect of over 75% in size. Particulars: G9a H3K9 monomethylation, AlphaScreen, 2 h; series mostly up to 102 µM; activity, negative = inhibition: at the top concentration.
In the case of `O=C(O)c1ccccc1[As](=O)(O)O`, the “activity, negative = inhibition” value is inactive: -21.1%.
On to `CC(=O)Nc1ccc([As](=O)(O)O)cc1`, for which the activity, negative = inhibition was inactive: -13.7% [at 2.33 µM].
Same read-out and setting: the same measure for `Cc1ccc(NP(=O)(Oc2ccccc2F)Oc2ccccc2F)nc1`: inactive: -44.2%.
As for `CCOP(=O)(Nc1ccccc1)OCC`, the Potency entry is “inactive”.
The same measure, in the same setting: the same measure for `Cc1cc(SC(NC(=O)c2ccc(F)cc2)C(Cl)(Cl)Cl)ncn1` (configuration not stated): active: 2.51 µM.
`O=[N+]([O-])c1cc([N+](=O)[O-])c(CCN2CCOCC2)c([N+](=O)[O-])c1`: the activity, negative = inhibition was inactive: 8.19% [at 2.33 µM].
With `CCN(N=Nc1nonc1N)c1nonc1N`, the “activity, negative = inhibition” value is inactive: -3.49% [at 59 µM].
Still for that read-out and setting: the same measure for `NC(=O)c1cc([N+](=O)[O-])cc([N+](=O)[O-])c1N`: inactive: 18.6%.
Same read-out and setting: the same measure for `Cc1ccc(N/C(=N/P(=O)(N2CCOCC2)N2CCOCC2)N2CCOCC2)cc1`: inactive: -31.5%.
`CC1=NCCc2c1[nH]c1ccccc21`: the Potency was active: 44.7 µM.
Turning to `Cc1ccc(OP(=O)(Nc2nccs2)Oc2ccc(C)cc2)cc1`, the “activity, negative = inhibition” value was inactive: -24.3%.
For `COc1ccccc1OP(=O)(Nc1ccc(C)cn1)Oc1ccccc1OC`, the “activity, negative = inhibition” value was inactive: 12.3%.
Turning to `Clc1ccc(Cl)c(NC2=NCC(CBr)S2)c1` (configuration not stated), the Potency was active: 25.1 µM.
Regarding `CC(C)CC(=O)NC(Sc1ccc(Cl)cc1)C(Cl)(Cl)Cl` (configuration not stated), the “activity, negative = inhibition” value is inactive: 47.5%.
In the case of `Nc1cc(N)c2nonc2c1[N+](=O)[O-]`, the “activity, negative = inhibition” value is inactive: 0.57%.
For `O=C(NC(Sc1ccncn1)C(Cl)(Cl)Cl)c1ccccc1` (configuration not stated), the Potency is active: 2.24 µM.
In the case of `Oc1ccccc1CNc1ccccn1`, the “activity, negative = inhibition” value is inactive: -1.27%.
As for `COc1ccc(C2=NCC(CBr)S2)cc1` (configuration not stated), the Potency was active: 35.5 µM.
Take `CC(=O)N1C2C3N(C(C)=O)C1C1N(C(C)=O)C(C(N1C(C)=O)N3C(C)=O)N2C(C)=O`: the “activity, negative = inhibition” value was inactive: 6.32%.
Consider `O=[N+]([O-])c1cccc2n[nH]nc12`, for which the “activity, negative = inhibition” value is inactive: -7.34% [at 59 µM].
For the molecule `CCc1nc2c(n1)c1c(non1O)c1c2no[n+]1[O-]`, the Potency is active: 56.2 µM.
With `Cc1ccc(NP(=O)(Oc2ccccc2)Oc2ccccc2)nc1`, the “activity, negative = inhibition” value was inactive: 17.5%.
For `CCN(/C(=N/P(=O)(N1CCOCC1)N1CCOCC1)N1CCOCC1)c1ccc(OC)cc1`, the “activity, negative = inhibition” value was inactive: 14.9%.
Still for that read-out and setting: the same measure for `CN(C)C(=O)OCCc1n(C)cc[n+]1C`: inactive: 13.4% [at 59 µM].
Same read-out and setting: the same measure for `CC1CCN(C(=O)Oc2c(Cl)cc(Cl)c3cccnc23)CC1`: inactive: 87.6%.
Turning to `CC(=O)C1=CCCC2CCC1N2` (configuration not stated), the Potency result is “inactive”.
As to `O=C(Nc1cc([As](=O)(O)O)ccc1O)c1ccccc1`, the activity, negative = inhibition is inactive: 43.2% [at 0.501 µM].
Turning to `CC(C)(C)C(=O)NC(Sc1ccncn1)C(Cl)(Cl)Cl` (configuration not stated), the Potency was active: 8.91 µM.
In the case of `O=[N+]([O-])c1ncn(CCn2ncnc2[N+](=O)[O-])n1`, the “activity, negative = inhibition” value was inactive: 8.36%.
Same read-out and setting: the same measure for `O=C(O)CNc1ccc([As](=O)(O)O)cc1`: inactive: -50.6%; for `O=P(Nc1ccccn1)(c1ccc(Br)cc1)c1ccc(Br)cc1`: inactive: -29.8% [at 59 µM]; for `O=P(Nc1nc2ccccc2s1)(c1ccccc1)c1ccccc1`: inactive: -31.1%.
`CN(C(=O)Cc1ccccc1)[C@H]1CC[C@@]2(CCCO2)C[C@@H]1N1CCCC1`: the “activity, negative = inhibition” value is inactive: 39.8% [at 59 µM].
The same measure, in the same setting: the same measure for `O=[N+]([O-])c1ncn(CCn2cnc([N+](=O)[O-])n2)n1`: inactive: 2.75%.
Take `CC(=O)NC(SC(=S)N(C)C)C(Cl)(Cl)Cl` (configuration not stated): the Potency was active: 28.2 µM.
For `O=[As](O)(c1ccccc1)c1ccc(O)cc1`, the “activity, negative = inhibition” value is inactive: -36.6%.
With `O=P(Nc1nccs1)(c1ccccc1)c1ccccc1`, the activity, negative = inhibition was inactive: 0.637% [at 12.7 µM].
The same measure, in the same setting: to `CC(C)C(=O)NC(Sc1ccccc1)C(Cl)(Cl)Cl` (configuration not stated) belongs inactive: 10.7% [at 59 µM].
On the same count and under the same terms, the same measure for `c1nnnn1CCn1cnnn1`: inactive: 26.7% [at 2.33 µM].
On to `CCOc1ccc(C2=NCC(CBr)S2)cc1` (configuration not stated), for which the Potency was active: 39.8 µM.
Turning to `O=P1(Nc2nc3ccc(Cl)cc3s2)COc2ccccc2O1` (configuration not stated), the “activity, negative = inhibition” value is inactive: 9.45% [at 59 µM].
For the molecule `CC(C)(C)C(=O)NC(Sc1ccccc1)C(Cl)(Cl)Cl` (configuration not stated), the “activity, negative = inhibition” value was inactive: 59.5%.
Still for that read-out and setting: the same measure for `CC(=O)c1ccc(N2CC2c2ccncc2)cc1` (configuration not stated): inactive: -1.79%.
Same read-out and setting: the same measure for `C[C@H]1OP(=O)(Oc2ccccc2)C[C@@H]2O[C@@H]21` (some centres not stated): inactive: 29.7% [at 12.7 µM]; for `Cc1ccccc1CN(C)C(=O)COC(=O)C(O)(c1ccccc1)c1ccccc1`: inactive: 6.8% [at 2.33 µM].
For `CC(=O)Nc1ccc(Oc2c([N+](=O)[O-])cc([N+](=O)[O-])cc2[N+](=O)[O-])cc1`, the Potency was active: 44.7 µM.
Consider `O=C(NC1CCS(=O)(=O)C1)NP(=S)(Oc1ccccc1)Oc1ccccc1` (configuration not stated), for which the “activity, negative = inhibition” value is inactive: -7.79%.
Same read-out and setting: the same measure for `CCNC(=S)/N=C(\N)N[N+](=O)[O-]`: inactive: -131% [at 59 µM].
On the same count and under the same terms, the same measure for `CCOC(=O)NC(Sc1ccccc1)C(Cl)(Cl)Cl` (configuration not stated): inactive: 89.5%; for `Cc1ccc(NP(=O)(Oc2cccc(C)c2)Oc2cccc(C)c2)nc1`: inactive: 20.5% [at 12.7 µM]; for `Cc1ccc(OP(=O)(Nc2ccccn2)Oc2ccc(C)cc2)cc1`: inactive: 6.46%.
Take `COC(=O)c1cc2c(s1)N=C(c1ccccc1)N(C)P2(=O)N1CCOCC1` (configuration not stated): the “activity, negative = inhibition” value is inactive: 3.96% [at 59 µM].
On the same count and under the same terms, the same measure for `CCC(=O)N1C2C3N(C(=O)CC)C1C1N(C(=O)CC)C(C(N1C(=O)CC)N3C(=O)CC)N2C(=O)CC`: inactive: 16.2%.
For `O=C(OC1CN2CCC1CC2)c1ccccc1` (configuration not stated), the Potency entry was “inactive”.
Regarding `CN(C)C(=O)Oc1noc2ccccc12`, the “activity, negative = inhibition” value was inactive: 17% [at 59 µM].
In the case of `O=c1c2cc([N+](=O)[O-])ccc2[nH]c2c([N+](=O)[O-])cc([N+](=O)[O-])cc12`, the “activity, negative = inhibition” value is inactive: -50.4%.
Turning to `Cc1ccccc1OP(=O)(Nc1ccccn1)Oc1ccccc1C`, the “activity, negative = inhibition” value is inactive: -3.88%.
